In patent US20210246189A1:

Biological target: transgenic TCR specific for A*02:01/pp65495-503, on transduced PBMCs
Assay: cell-based or functional assay

For “A2/pp65495-503 pMHC functionalized with MMAF (toxin armed Tub-tagged Streptamer) (from UniProt P61769 21-119; P06725 495-503) (peptide-MHC)”, the Ag-specific CD8 T cell population after 5d culture with 0.25 ug pMHC was 15.2% and the Ag-specific CD8 T cell population after 5d culture with 0.5 ug pMHC was 4.9%.
